According to PubChem BioAssay AID588692 (Broad Institute, 2011):
The list shows a part of the results, in another mix than the full data. Activity calls are given as the source filed them.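 The calls were made as follows: active = mean luciferase reporter signal, scaled so untreated is 0 and the glycosylation-blocking control 100, at or above a set limit in every replicate; inconclusive = mean reaches the limit but not every replicate does; inactive = mean below the limit.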

Assay: D54 reporter luminescence gain compounds – D54 ERlucT cells, set 2, N-linked glycosylation inhibitor project, primary screen (AID 588692);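 also: luciferase carries N-glycosylation sites so blocking glycosylation raises the light; 0% = median of neutral control wells and 100% = median of 100 nM tunicamycin wells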
Settings: D54 ERlucT glycosylation luciferase reporter, 24 h; at 12.5 µM; hits give high values; percent of 100 nM tunicamycin response
In the case of O=[N+]([O-])c1cc([N+](=O)[O-])c(-n2nnc3ccccc32)c([N+](=O)[O-])c1, the reporter increase is reported as inactive: 1.64%.
With Cc1nc2ccc3ccccc3c2s1.O=[N+]([O-])c1cc([N+](=O)[O-])c(O)c([N+](=O)[O-])c1 the reporter increase was inactive: 1.98%.
In the case of O=[N+]([O-])c1cc([N+](=O)[O-])c(-c2cnn(-c3ccccc3)c2)c([N+](=O)[O-])c1, the reporter increase is reported as inactive: -0.269%.
With O=[N+]([O-])c1cc([N+](=O)[O-])c(Nc2nnnn2CCO)c([N+](=O)[O-])c1 the reporter increase was inactive: 4.1%.
With CC1=C2N=C(C=C3N=C(C(C)=C4[N-][C@@](C)([C@@H]5N=C1[C@](C)(CCC(=O)NC[C@@H](C)OP(=O)([O-])O[C@H]1[C@@H](O)[C@@H](n6cnc7cc(C)c(C)cc76)O[C@@H]1CO)[C@H]5CC(N)=O)[C@@](C)(CC(N)=O)[C@@H]4CCC(N)=O)[C@@](C)(CC(N)=O)[C@@H]3CCC(N)=O)C(C)(C)[C@@H]2CCC(N)=O.[C-]#N.[Co+3] the reporter increase was inactive: -8.32%.
With CCOC(=O)C(CC)C1=NC(C)(C)Cc2ccccc21.O=[N+]([O-])c1cc([N+](=O)[O-])c(O)c([N+](=O)[O-])c1 (stereo not given) the reporter increase was inactive: 1.5%.
For CP(=O)(Nc1ccc(SC(F)(F)F)cc1)Oc1ccccc1 (stereo not given), the reporter increase was inactive: -1.38%.
With CCCOc1ccc(NP(C)(=O)Oc2ccc(Cl)cc2)cc1 (stereo not given) the reporter increase was inactive: 1.7%.
In the case of CN1CCCCC1COC(=O)C1(O)c2ccccc2CCc2ccccc21 (stereo not given), the reporter increase is reported as inactive: 5.17%.
In the case of COc1ccccc1OP(C)(=O)Nc1c(C)cccc1C (stereo not given), the reporter increase is reported as inactive: 0.431%.
With CP(=O)(Nc1ccccc1Br)Oc1ccccc1 (stereo not given) the reporter increase was inactive: 2.14%.
In the case of COc1ccccc1OP(C)(=O)Nc1ccccc1 (stereo not given), the reporter increase is reported as inactive: 1.74%.
In the case of CP(=S)(Nn1cnnc1)Oc1ccccc1 (stereo not given), the reporter increase is reported as inactive: 2.85%.
With CCc1ccc(OP(C)(=O)N2CCN(c3ccc([N+](=O)[O-])cc3)CC2)cc1 (stereo not given) the reporter increase was inactive: 3.08%.
With CP(=O)(NC(=O)Nc1ccccc1)Oc1ccccc1 (stereo not given) the reporter increase was inactive: 0.584%.
With Cc1cc(C)cc(OP(C)(=O)Nc2ccc(SC(F)(F)F)cc2)c1 (stereo not given) the reporter increase was inactive: -1.11%.
For CP(=O)(Nc1ccc(SC(F)(F)F)cc1)Oc1ccc(Cl)cc1 (stereo not given), the reporter increase was inactive: 0.291%.
For Cc1ccc(Nc2c([N+](=O)[O-])cc([N+](=O)[O-])cc2[N+](=O)[O-])cc1, the reporter increase was inactive: 0.675%.
In the case of Cc1cccc(C)c1OP(C)(=O)Nc1ccc(SC(F)(F)F)cc1 (stereo not given), the reporter increase is reported as inactive: 1.69%.
For CP(=O)(Oc1ccccc1)OC(c1ccccc1)C(F)(F)F (stereo not given), the reporter increase was inactive: 1.74%.
In the case of CP(=O)(Nc1ccccn1)Oc1ccc(Cl)cc1 (stereo not given), the reporter increase is reported as inactive: 2.19%.
For O=[N+]([O-])c1cc([N+](=O)[O-])c(O)c([N+](=O)[O-])c1.c1ccc(Oc2ccncc2)cc1, the reporter increase was inactive: -0.605%.
In the case of CCOC(=O)c1ccc(NP(C)(=O)Oc2ccc(OC)cc2)cc1 (stereo not given), the reporter increase is reported as inactive: -1.19%.
In the case of CCOP(C)(=S)SCC(=O)NC(C)C(=O)O (stereo not given), the reporter increase is reported as inactive: 1.24%.
With CCN(CC)CCCOC(=O)C(O)(c1ccccc1)c1ccccc1 the reporter increase was inactive: -2.27%.
With O=[N+]([O-])c1ccc2c(c1)C=Nc1ccccc1O2 the reporter increase was inactive: 2.71%.
For CC(C)(C)c1ccc(OP(C)(=O)Nc2ccc(SC(F)(F)F)cc2)cc1 (stereo not given), the reporter increase was inactive: -1.38%.
For Cc1cccc(C)c1OP(C)(N)=O (stereo not given), the reporter increase was inactive: 4.15%.
In the case of O=[N+]([O-])c1cc([N+](=O)[O-])c(Nc2cccnc2)c([N+](=O)[O-])c1, the reporter increase is reported as inactive: 4.37%.
For Cc1cc(C)cc(OP(C)(N)=O)c1 (stereo not given), the reporter increase was inactive: 2.19%.
With COc1ccccc1OP(C)(=O)Nc1cc(Cl)ccc1C (stereo not given) the reporter increase was inactive: 0.865%.
For COc1ccc(OP(C)(=O)Nc2cccc(F)c2)cc1 (stereo not given), the reporter increase was inactive: 2.69%.
In the case of COc1ccccc1OP(C)(=O)Nc1ccc(C)cc1 (stereo not given), the reporter increase is reported as inactive: 2.58%.
In the case of Cc1ccc(NP(C)(=O)Oc2ccccc2)c(C)c1 (stereo not given), the reporter increase is reported as inactive: 2.3%.
For CCOC(=O)c1ccc(NP(C)(=O)Oc2ccccc2)cc1 (stereo not given), the reporter increase was inactive: -0.688%.
